According to patent US20240215587A1 (priority 2020, published 2024):

Tested on: rice seeds
Conditions: seed soaking 24 h in 1500 or 2000 times dilutions

CCCCCCCCCCCC[N+](C)(C)Cc1ccccc1.[Br-] [Dodecyl dimethyl benzyl ammonium bromide, dodecyl dimethyl benzyl ammonium bromide]
inhibitory effects on rice seed germination and seedling growth (in words): have inhibitory effects
